Reference: PubChem BioAssay (NCI)
Some of these compounds have results that are not shown, active ones among them.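 In this assay, cells in 96-well plates receive the compound at five concentrations for 48 hours. Endpoints are linearly interpolated between the surrounding concentrations. GI50 = concentration required for 50% inhibition of growth. TGI denotes the concentration required for complete inhibition of growth.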

Key:
Experiment in all cases: DTP human tumour cell line panel, 48 h
RPMI-8226 leukemia = test system: RPMI-8226 leukemia
HCT-15 colon = test system: HCT-15 colon
SN12C renal = test system: SN12C renal
UACC-257 melanoma = test system: UACC-257 melanoma
A498 renal = test system: A498 renal
NCI-H23 lung = test system: NCI-H23 lung
UO-31 renal = test system: UO-31 renal
HCT-116 colon = test system: HCT-116 colon
RXF 393 renal = test system: RXF 393 renal
EKVX NSCLC = test system: EKVX NSCLC
NCI-H226 lung = test system: NCI-H226 lung
HT29 colon = test system: HT29 colon
MDA-N = test system: MDA-N
786-0 renal = test system: 786-0 renal
SR leukemia = test system: SR leukemia
NCI/ADR-RES ovarian = test system: NCI/ADR-RES ovarian
SK-MEL-28 melanoma = test system: SK-MEL-28 melanoma
T-47D breast = test system: T-47D breast
MDA-MB-231 breast = test system: MDA-MB-231 breast
MCF7 breast = test system: MCF7 breast
ACHN renal = test system: ACHN renal
IGROV1 ovarian = test system: IGROV1 ovarian
M14 melanoma = test system: M14 melanoma
LOX IMVI melanoma = test system: LOX IMVI melanoma
K-562 leukemia = test system: K-562 leukemia
OVCAR-3 ovarian = test system: OVCAR-3 ovarian
SK-MEL-5 melanoma = test system: SK-MEL-5 melanoma
HL-60(TB) leukemia = test system: HL-60(TB) leukemia
COLO 205 colon = test system: COLO 205 colon
PC-3 prostate = test system: PC-3 prostate
SF-268 CNS = test system: SF-268 CNS
HOP-92 NSCLC = test system: HOP-92 NSCLC
CAKI-1 renal = test system: CAKI-1 renal
TK-10 renal = test system: TK-10 renal
CCRF-CEM leukemia = test system: CCRF-CEM leukemia
NCI-H522 lung = test system: NCI-H522 lung
OVCAR-8 ovarian = test system: OVCAR-8 ovarian
MALME-3M melanoma = test system: MALME-3M melanoma
SK-OV-3 ovarian = test system: SK-OV-3 ovarian
SNB-75 CNS = test system: SNB-75 CNS
DU-145 prostate = test system: DU-145 prostate
HOP-62 NSCLC = test system: HOP-62 NSCLC
SK-MEL-2 melanoma = test system: SK-MEL-2 melanoma
OVCAR-5 ovarian = test system: OVCAR-5 ovarian
U251 CNS = test system: U251 CNS
MOLT-4 leukemia = test system: MOLT-4 leukemia
SNB-19 CNS = test system: SNB-19 CNS
UACC-62 melanoma = test system: UACC-62 melanoma
SF-295 CNS = test system: SF-295 CNS
OVCAR-4 ovarian = test system: OVCAR-4 ovarian
NCI-H460 lung = test system: NCI-H460 lung
SW-620 colon = test system: SW-620 colon
MDA-MB-435 = test system: MDA-MB-435
HS 578T breast = test system: HS 578T breast
HCC-2998 colon = test system: HCC-2998 colon
KM12 colon = test system: KM12 colon
SF-539 CNS = test system: SF-539 CNS
A549 NSCLC = test system: A549 NSCLC
NCI-H322M lung = test system: NCI-H322M lung

CCC#CC(O)(C(=O)OC1CN2CCC1CC2)C1CCCC1 (stereo not drawn)
GI50 (RPMI-8226 leukemia): > 100 µM
TGI (RPMI-8226 leukemia): > 100 µM
GI50 (HCT-15 colon): > 100 µM
TGI (HCT-15 colon): > 100 µM
GI50 (SN12C renal): > 100 µM
TGI (SN12C renal): > 100 µM
GI50 (UACC-257 melanoma): > 100 µM
TGI (UACC-257 melanoma): > 100 µM
GI50 (A498 renal): > 100 µM
TGI (A498 renal): > 100 µM
GI50 (NCI-H23 lung): > 100 µM
TGI (NCI-H23 lung): > 100 µM
GI50 (UO-31 renal): > 100 µM
TGI (UO-31 renal): > 100 µM
GI50 (HCT-116 colon): > 100 µM
TGI (HCT-116 colon): > 100 µM
GI50 (RXF 393 renal): > 100 µM
TGI (RXF 393 renal): > 100 µM
GI50 (EKVX NSCLC): > 100 µM
TGI (EKVX NSCLC): > 100 µM
GI50 (NCI-H226 lung): > 100 µM
TGI (NCI-H226 lung): > 100 µM
GI50 (HT29 colon): > 100 µM
TGI (HT29 colon): > 100 µM
GI50 (MDA-N): > 100 µM
TGI (MDA-N): > 100 µM
GI50 (786-0 renal): > 100 µM
TGI (786-0 renal): > 100 µM
GI50 (SR leukemia): > 100 µM
TGI (SR leukemia): > 100 µM
GI50 (NCI/ADR-RES ovarian): > 100 µM
TGI (NCI/ADR-RES ovarian): > 100 µM
GI50 (SK-MEL-28 melanoma): > 100 µM
TGI (SK-MEL-28 melanoma): > 100 µM
GI50 (T-47D breast): > 100 µM
TGI (T-47D breast): > 100 µM
GI50 (MDA-MB-231 breast): > 100 µM
TGI (MDA-MB-231 breast): > 100 µM
GI50 (MCF7 breast): > 100 µM
TGI (MCF7 breast): > 100 µM
GI50 (ACHN renal): > 100 µM
TGI (ACHN renal): > 100 µM
GI50 (IGROV1 ovarian): > 100 µM
TGI (IGROV1 ovarian): > 100 µM
GI50 (M14 melanoma): > 100 µM
TGI (M14 melanoma): > 100 µM
GI50 (LOX IMVI melanoma): > 100 µM
TGI (LOX IMVI melanoma): > 100 µM
GI50 (K-562 leukemia): > 100 µM
TGI (K-562 leukemia): > 100 µM
GI50 (OVCAR-3 ovarian): > 100 µM
TGI (OVCAR-3 ovarian): > 100 µM
GI50 (SK-MEL-5 melanoma): > 100 µM
TGI (SK-MEL-5 melanoma): > 100 µM
GI50 (HL-60(TB) leukemia): > 100 µM
TGI (HL-60(TB) leukemia): > 100 µM
GI50 (COLO 205 colon): > 100 µM
TGI (COLO 205 colon): > 100 µM
GI50 (PC-3 prostate): > 100 µM
TGI (PC-3 prostate): > 100 µM
GI50 (SF-268 CNS): > 100 µM
TGI (SF-268 CNS): > 100 µM
GI50 (HOP-92 NSCLC): 73.6 µM
TGI (HOP-92 NSCLC): > 100 µM
GI50 (CAKI-1 renal): > 100 µM
TGI (CAKI-1 renal): > 100 µM
GI50 (TK-10 renal): > 100 µM
TGI (TK-10 renal): > 100 µM
GI50 (CCRF-CEM leukemia): > 100 µM
TGI (CCRF-CEM leukemia): > 100 µM
GI50 (NCI-H522 lung): > 100 µM
TGI (NCI-H522 lung): > 100 µM
GI50 (OVCAR-8 ovarian): > 100 µM
TGI (OVCAR-8 ovarian): > 100 µM
GI50 (MALME-3M melanoma): > 100 µM
TGI (MALME-3M melanoma): > 100 µM
GI50 (SK-OV-3 ovarian): > 100 µM
TGI (SK-OV-3 ovarian): > 100 µM
GI50 (SNB-75 CNS): > 100 µM
TGI (SNB-75 CNS): > 100 µM
GI50 (DU-145 prostate): > 100 µM
TGI (DU-145 prostate): > 100 µM
GI50 (HOP-62 NSCLC): > 100 µM
TGI (HOP-62 NSCLC): > 100 µM
GI50 (SK-MEL-2 melanoma): > 100 µM
TGI (SK-MEL-2 melanoma): > 100 µM
GI50 (OVCAR-5 ovarian): > 100 µM
TGI (OVCAR-5 ovarian): > 100 µM
GI50 (U251 CNS): > 100 µM
TGI (U251 CNS): > 100 µM
GI50 (MOLT-4 leukemia): > 100 µM
TGI (MOLT-4 leukemia): > 100 µM
GI50 (SNB-19 CNS): > 100 µM
TGI (SNB-19 CNS): > 100 µM
GI50 (UACC-62 melanoma): > 100 µM
TGI (UACC-62 melanoma): > 100 µM
GI50 (SF-295 CNS): > 100 µM
TGI (SF-295 CNS): > 100 µM
GI50 (OVCAR-4 ovarian): > 100 µM
TGI (OVCAR-4 ovarian): > 100 µM
GI50 (NCI-H460 lung): > 100 µM
TGI (NCI-H460 lung): > 100 µM
GI50 (SW-620 colon): > 100 µM
TGI (SW-620 colon): > 100 µM
GI50 (MDA-MB-435): > 100 µM
TGI (MDA-MB-435): > 100 µM
GI50 (HS 578T breast): > 100 µM
TGI (HS 578T breast): > 100 µM
GI50 (HCC-2998 colon): > 100 µM
TGI (HCC-2998 colon): > 100 µM
GI50 (KM12 colon): > 100 µM
TGI (KM12 colon): > 100 µM
GI50 (SF-539 CNS): > 100 µM
TGI (SF-539 CNS): > 100 µM
GI50 (A549 NSCLC): > 100 µM
TGI (A549 NSCLC): > 100 µM
GI50 (NCI-H322M lung): > 100 µM
TGI (NCI-H322M lung): > 100 µM
